Tested on: patients with active SLE
Conditions: HCZ 200 mg to 400 mg per day

CCN(CCO)CCCC(C)Nc1ccnc2cc(Cl)ccc12 (stereo not shown) [hydroxychloroquine]
Side effects during the HCZ protocol: No obvious side effects

Reference: patent US11110149B2, “Method for predicting and monitoring the efficacy of low-dose IL-2 and hydroxychloroquine therapy in autoimmune diseases and its long-term use in autoimmune-related conditions” (KSL BIOMEDICAL INC., priority 2019, dated 2021)
